{
  "source": "ChEMBL document CHEMBL2177083",
  "about": "“Enhanced in vitro biological activity of synthetic 2-(2-pyridyl) ethyl isothiocyanate compared to natural 4-(methylsulfinyl) butyl isothiocyanate” (J Med Chem, 2012)",
  "format_in_all_cases": "functional, cell-based",
  "key": {"[1]": {"experiment": "Increase in TGF-beta signaling pathway related gene expression in human PNT1A cells at 10 uM incubated for 8 hrs by Affymetrix human exon array relative to untreated control"}, "HepG2": {"tested_on": "HepG2", "experiment": "Cytotoxicity against human HepG2 cells incubated for 24 hrs by WST1 dye reduction assay"}, "PC-3": {"tested_on": "PC-3", "experiment": "Cytotoxicity against human PC3 cells incubated for 24 hrs by WST1 dye reduction assay"}, "[2]": {"experiment": "Increase in MAPK signaling pathway related gene expression in human PNT1A cells at 10 uM incubated for 8 hrs by Affymetrix human exon array relative to untreated control"}, "Caco-2": {"tested_on": "Caco-2", "experiment": "Cytotoxicity against human Caco2 cells incubated for 24 hrs by WST1 dye reduction assay"}, "DU-145": {"tested_on": "DU-145", "experiment": "Cytotoxicity against human DU145 cells incubated for 24 hrs by WST1 dye reduction assay"}},
  "data": [
    {"smiles": "S=C=NCCc1ccccn1", "values": [
      {"measurement": "fold change (FC)", "setting": "[1]", "value": 2.2},
      {"measurement": "Activity", "setting": "HepG2", "value": "Dose-dependent effect"},
      {"measurement": "Activity", "setting": "PC-3", "value": "Dose-dependent effect"},
      {"measurement": "fold change (FC)", "setting": "[2]", "value": 1.7},
      {"measurement": "Activity", "setting": "Caco-2", "value": "Dose-dependent effect"},
      {"measurement": "Activity", "setting": "DU-145", "value": "Dose-dependent effect"}
    ]}
  ]
}
